Source: ChEMBL document CHEMBL5512615, “Targeting autophagy drug discovery: Targets, indications and development trends” (Eur J Med Chem, 2024)

Chains of the proteins cited; added tags and fusions are not shown. Lines headed by an entry give the natural chain unless they say otherwise; changes in a name come on top.
UniProt P48736: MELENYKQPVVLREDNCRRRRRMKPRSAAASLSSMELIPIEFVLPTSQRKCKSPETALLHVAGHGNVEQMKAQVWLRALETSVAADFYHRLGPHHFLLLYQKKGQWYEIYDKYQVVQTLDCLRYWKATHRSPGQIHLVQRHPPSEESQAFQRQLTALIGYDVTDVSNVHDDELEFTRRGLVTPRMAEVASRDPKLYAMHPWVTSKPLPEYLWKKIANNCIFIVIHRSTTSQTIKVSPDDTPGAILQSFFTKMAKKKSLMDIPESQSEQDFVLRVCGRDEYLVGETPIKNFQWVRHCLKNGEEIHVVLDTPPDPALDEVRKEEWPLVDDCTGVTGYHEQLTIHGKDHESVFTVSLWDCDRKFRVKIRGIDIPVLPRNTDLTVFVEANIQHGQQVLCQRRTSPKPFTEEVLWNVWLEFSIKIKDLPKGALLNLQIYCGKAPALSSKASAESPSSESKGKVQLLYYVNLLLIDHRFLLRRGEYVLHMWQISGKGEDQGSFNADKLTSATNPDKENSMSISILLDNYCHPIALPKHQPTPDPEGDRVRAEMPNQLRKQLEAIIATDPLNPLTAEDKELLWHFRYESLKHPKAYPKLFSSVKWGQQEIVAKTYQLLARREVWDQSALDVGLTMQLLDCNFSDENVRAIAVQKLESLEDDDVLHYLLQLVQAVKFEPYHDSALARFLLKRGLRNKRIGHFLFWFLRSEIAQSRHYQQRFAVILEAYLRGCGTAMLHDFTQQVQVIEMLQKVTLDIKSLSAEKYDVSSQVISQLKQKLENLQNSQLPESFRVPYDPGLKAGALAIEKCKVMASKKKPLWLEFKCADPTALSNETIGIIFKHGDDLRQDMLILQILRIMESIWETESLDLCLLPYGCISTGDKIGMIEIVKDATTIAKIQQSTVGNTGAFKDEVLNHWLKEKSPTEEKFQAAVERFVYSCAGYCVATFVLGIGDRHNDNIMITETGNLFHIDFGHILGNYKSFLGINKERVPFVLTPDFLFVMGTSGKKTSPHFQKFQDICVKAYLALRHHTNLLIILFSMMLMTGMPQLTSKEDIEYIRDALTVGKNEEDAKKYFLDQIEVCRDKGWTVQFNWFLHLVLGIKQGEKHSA
UniProt P42338: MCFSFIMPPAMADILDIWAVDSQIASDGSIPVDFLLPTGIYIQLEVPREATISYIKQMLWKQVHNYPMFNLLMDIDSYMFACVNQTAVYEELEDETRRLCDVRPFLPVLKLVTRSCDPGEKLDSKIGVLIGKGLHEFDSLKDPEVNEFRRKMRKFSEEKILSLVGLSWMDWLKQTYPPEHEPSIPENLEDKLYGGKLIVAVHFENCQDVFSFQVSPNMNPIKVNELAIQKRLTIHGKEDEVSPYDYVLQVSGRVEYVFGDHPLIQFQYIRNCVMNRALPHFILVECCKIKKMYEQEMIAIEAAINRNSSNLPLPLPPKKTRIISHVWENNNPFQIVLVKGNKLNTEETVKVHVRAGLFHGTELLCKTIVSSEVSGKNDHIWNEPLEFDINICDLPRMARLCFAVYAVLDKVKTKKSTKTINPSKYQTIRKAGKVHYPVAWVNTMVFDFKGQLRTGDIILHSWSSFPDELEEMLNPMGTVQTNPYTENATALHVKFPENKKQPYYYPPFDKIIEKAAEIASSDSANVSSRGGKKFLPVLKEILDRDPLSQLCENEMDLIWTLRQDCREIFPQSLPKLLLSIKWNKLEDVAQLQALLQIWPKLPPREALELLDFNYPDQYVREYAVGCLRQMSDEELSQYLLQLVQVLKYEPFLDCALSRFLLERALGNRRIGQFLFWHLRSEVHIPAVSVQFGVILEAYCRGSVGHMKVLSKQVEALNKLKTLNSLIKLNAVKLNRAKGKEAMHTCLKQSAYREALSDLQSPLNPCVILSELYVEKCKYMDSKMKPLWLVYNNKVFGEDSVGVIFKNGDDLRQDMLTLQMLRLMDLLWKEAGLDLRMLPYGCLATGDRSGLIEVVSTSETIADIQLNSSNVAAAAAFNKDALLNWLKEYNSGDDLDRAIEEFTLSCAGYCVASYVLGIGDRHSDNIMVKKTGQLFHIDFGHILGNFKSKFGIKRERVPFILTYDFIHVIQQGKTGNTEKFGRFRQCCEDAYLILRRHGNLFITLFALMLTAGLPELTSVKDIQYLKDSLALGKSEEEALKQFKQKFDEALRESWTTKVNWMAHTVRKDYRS

Columns and labels:
[1] = biological target: Phosphatidylinositol 4,5-bisphosphate 3-kinase catalytic subunit gamma isoform (Homo sapiens, UniProt P48736); experiment: Inhibition of PI3Kgamma (unknown origin)
[2] = biological target: Phosphatidylinositol 4,5-bisphosphate 3-kinase catalytic subunit beta isoform (Homo sapiens, UniProt P42338); experiment: Inhibition of PI3Kbeta (unknown origin)

An IC50 [1] of 970 nM and an IC50 [2] of 570 nM were found for O=c1cc(N2CCOCC2)oc2c(-c3ccccc3)cccc12 [LY-294002] in this work.
